We go through one compound from ChEMBL document CHEMBL1145356, “Discovery of new C3aR ligands. Part 1: arginine derivatives” (Bioorg Med Chem Lett, 2007).

For assay [1], the target named is T1, C3a anaphylatoxin chemotactic receptor (Homo sapiens, UniProt Q16581).
T1 sequence (Q16581 whole entry): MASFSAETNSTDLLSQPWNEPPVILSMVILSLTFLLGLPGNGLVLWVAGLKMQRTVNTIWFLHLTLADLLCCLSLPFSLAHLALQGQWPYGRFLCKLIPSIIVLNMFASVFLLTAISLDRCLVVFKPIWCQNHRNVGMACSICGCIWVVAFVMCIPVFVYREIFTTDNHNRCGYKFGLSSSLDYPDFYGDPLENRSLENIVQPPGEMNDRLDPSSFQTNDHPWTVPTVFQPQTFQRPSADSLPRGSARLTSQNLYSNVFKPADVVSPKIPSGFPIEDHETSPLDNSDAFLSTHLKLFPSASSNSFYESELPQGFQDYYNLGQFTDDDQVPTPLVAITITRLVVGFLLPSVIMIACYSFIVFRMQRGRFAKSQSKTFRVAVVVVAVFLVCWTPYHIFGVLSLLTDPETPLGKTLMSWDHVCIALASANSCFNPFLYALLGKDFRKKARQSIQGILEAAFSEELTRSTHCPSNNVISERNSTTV
As to the kind of experiment: Antagonist activity at C3aR. It counts as functional.

Assay [2] has as its target T1, C3a anaphylatoxin chemotactic receptor. In words: Inhibition of human C3a receptor expressed on HMC1 cells by SPA assay. It is filed as cell-based.

What is called EC50 is the concentration needed to bring the measured effect to its halfway point. The low end stands for greater potency, the high end for weaker potency. By IC50 is commonly meant the point on the concentration scale where inhibition reaches its midpoint. `N=C(N)NCCC[C@H](NC(=O)c1ccc(C(c2ccccc2)c2ccccc2)o1)C(=O)O` gave an EC50 in assay [1] of 158 nM. In assay [2], this compound had a half-inhibitory concentration (IC50) of 63.1 nM.
